Shown are actives, neighbours in structure and some others; about 2.1% of the full set was active somewhere.
ERp5 block = ERp5 (human) disulfide isomerase inhibition. inhibition, % at 9.99 µM. hit rate 0.05% among 350,000. ERp5 insulin aggregation, absorbance 650 nm, 90 min. Q15084;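 active = mean replicate inhibition above about 25%, with every replicate also reaching it, limit read from the data, passing the limit was not always enough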
UUG fidelity = modulators of start codon recognition fidelity in yeast. activity score, % at 18.7 µM. S. cerevisiae UUG-firefly luciferase reporter, luminescence/redox ratio. 350,000 compounds, 0.13% hits;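 active means replicate mean at a twofold rise or more, about +100% in these data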;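 further: firefly luciferase made from a UUG start codon reports start codon fidelity; reporter light over untreated wells divided by growth signal over untreated wells; some hits fall short of that in this replicate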
PDI inh = blocks human protein disulfide isomerase activity; inhibition, % at 10 µM; PDI insulin aggregation turbidity, A650, 90 min; AID 588391; P07237; hit rate 0.052% among 350,000;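 active = mean inhibition across replicates of 30% or more, whatever share of single replicates reach that level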
NR1D1 modulator = Rev-erb alpha (human) modulation | AID 1259318 | activity, % at 10 µM | Rev-erbα–FITC-DNA binding, fluorescence polarization, 90 min | P20393 | hit rate 0.79% among 370,000;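 active = activity above about 14%, limit read from the data; passing the limit was not always enough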;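 note: 0% = DMSO wells with 35 nM protein and 100% = DMSO wells with 750 nM protein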
SMARCA2 act = SMARCA2 function activation, primary screen; activation, % at 9.1 µM; AID 652017; hit rate 1% among 370,000; MG213 cells, MMTV-luciferase reporter, dexamethasone, overnight; in the data active = activation above about 7.8%;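 note: 0% = vehicle wells and 100% = reference activator wells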
INS-1E GSIS act = GLuc luminescence reporter in INS-1E cells, primary screen for activators of glucose-dependent secretion of insulin; AID 743287; INS-1E GLuc reporter insulin secretion, 2-3 h; hit rate 0.61% among 370,000; activation, % at 16.6 µM;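 active = lowest replicate activation of at least 40%, so every replicate reaches that level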;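 note: 0% = median of neutral control wells and 100% = median of IBMX positive control wells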
SMARCA2 conf = confirmation of SMARCA2 (BRM) function activators; shares compounds with SMARCA2 act; MG213 cells, MMTV-luciferase with dexamethasone, luminescence, overnight; MG213 cells expressing E1A, Rb sequestered; DMSO wells 0%, reference activator 100%; activation, % at 9.1 µM; hit rate 30% among 3,500;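 active = activation above its plate's cutoff, the mean activation of tested wells plus 3 SD, cut at about 7.9% in these data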
GAL4-VP16 Luc = GAL4-VP16 reporter activation counter-screen; hit rate 41% among 3,500; shares compounds with SMARCA2 act; HEK293 GAL4-VP16 pG5luc reporter, luciferase luminescence; scaled: DMSO wells 0%, SAHA wells 100%; activation, % at 9.1 µM;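 active = activation above the solvent-only control well mean plus 3 SD, averaged across control plates, cut at about 5.2% in these data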
The depositor's hits bear a star; nt = no result given.

compound	ERp5 block	UUG fidelity	PDI inh	NR1D1 modulator	SMARCA2 act	INS-1E GSIS act	SMARCA2 conf	GAL4-VP16 Luc
Cc1ccc(NC(=O)c2cc([N+](=O)[O-])ccc2N2CCOCC2)cc1S(=O)(=O)N(C)C	2	-2	0	2	-3	7	nt	nt
COCC(=O)N1CC2(C1)[C@@H](c1ccccc1)[C@@H](CO)N2Cc1ccccc1OC	-1	nt	nt	nt	nt	12	nt	nt
S=c1[nH]nc(-c2ccccc2Cl)n1/N=C/C=C/c1ccco1	1	-16	-3	-3	-1	6	nt	nt
O=C1ON=C(c2ccccc2)/C1=C\c1ccco1	1	-18	-4	-4	-1	nt	nt	nt
O=C1NC(c2ccccc2Cl)=N/C1=C/c1ccco1	1	nt	7	-9	18*	-21	9.7*	8.1*
O=C1NC(c2ccc(Br)cc2)=N/C1=C/c1ccco1	nt	-9	9	0	8.1*	30	8	11*
CN(C)CCNC(=O)c1cccc(-c2cnc3c(NC=O)cc(-c4ccc(F)cc4)cn23)c1	-4	-1	1	0	5	10	nt	nt
CC(=O)Nc1cc(-c2cccc(C(=O)NCCN(C)C)c2)cn2c(-c3cccc(C(F)(F)F)c3)cnc12	-2	2	5	4	22*	170*	-15	2
COc1ccc(-c2cc(NC=O)c3ncc(-c4cccc(C(=O)NCCN(C)C)c4)n3c2)cc1	-4	-34	-5	5	8.0*	29	11*	0
CC(=O)Nc1cccc(-c2cc(NC(C)=O)c3ncc(-c4cccc(C(C)=O)c4)n3c2)c1	4	-12	-7	0	8.9*	nt	4	1
Cc1noc(C)c1S(=O)(=O)Nc1ccc2c(c1)C(=O)N([C@@H](C)CO)C[C@H](C)[C@H](CN(C)C(=O)Nc1ccccc1)O2	-6	3	nt	nt	nt	-3	nt	nt
C[C@H](CO)N1C[C@H](C)[C@H](CN(C)C)Oc2ccc(NC(=O)Nc3ccc(F)cc3)cc2C1=O	-1	-7	nt	nt	nt	16	nt	nt
CCC(=O)N(C)C[C@@H]1Oc2ncc(C#Cc3ccncc3)cc2C(=O)N([C@@H](C)CO)C[C@H]1C	9	-18	nt	nt	nt	-1	nt	nt
COc1ccc(CCNC(=O)C(=O)NCC2OCCN2C(=O)c2ccc(Cl)cc2)cc1OC (stereo not drawn)	-18	3	12	3	9.5*	23	0	1
Cc1ccccc1NC(=O)/C(C#N)=C/c1ccsc1	nt	0	14	3	7	13	nt	nt
N#C/C(=C\c1ccc[nH]1)C(=O)Nc1ccccc1[N+](=O)[O-]	1	0	16	-17	11*	8	14*	6.1*
O=C(CC(=O)Nc1ccccc1[N+](=O)[O-])Nc1ccccc1[N+](=O)[O-]	3	-4	-2	-1	-2	-34	nt	nt
Cc1ccccc1NC(=O)/C(C#N)=C/c1ccc[nH]1	0	-4	0	2	9.5*	nt	1	5.3*
CC(=O)N1CC2(C1)[C@H](c1ccc(-c3ccc(C#N)cc3)cc1)[C@H](CO)N2C(=O)C1CC1	-6	nt	nt	nt	nt	9	nt	nt
O=C1c2ccccc2C(=O)N1C1CCN(Cc2cccc(OCCO)c2)CC1	-4	nt	nt	nt	nt	nt	nt	nt
Cc1ccccc1C(=O)NNC(=O)c1ccoc1C	nt	-8	-8	-1	-2	3	nt	nt
Cc1occc1C(=O)NNC(=O)c1ccccc1C(=O)O	3	5	1	-3	12*	-7	5	5
O=C(c1cccc(Br)c1)N1CCN(C(=O)c2cccc(Br)c2)CC1	nt	-1	-14	-3	8.8*	nt	1	-1
O=C(c1cccc(Br)c1)N1CCN(C(=O)N2CCOCC2)CC1	nt	-18	-3	4	1	nt	nt	nt
CO[C@H]1CN(C)C(=O)c2cc(NC(=O)C3CCOCC3)ccc2OC[C@H](C)N(Cc2cccnc2)C[C@H]1C	3	nt	nt	nt	nt	0	nt	nt
CCOC(=O)c1sc(N)c(C(=O)OCC)c1C	2	-1	-13	7	22*	nt	7	7.5*
CCCOC(=O)CC1C(=O)NCCN1Cc1ccccc1C (stereo not drawn)	-3	-11	-2	-7	9.5*	-3	-3	0
C[C@H](CO)N1C[C@H](C)[C@@H](CN(C)C(=O)Nc2ccccc2)Oc2ccc(NC(=O)Nc3cccc4ccccc34)cc2C1=O	-3	2	nt	nt	nt	-9	nt	nt
O=C1c2ccccc2-c2c1c1ccccc1c(=O)n2CCO	4	nt	0	-2	16*	12	14*	7.7*
O=C1c2ccccc2-c2c1c1ccccc1c(=O)n2-c1ccccc1	4	nt	-4	-26	-3	4	nt	nt

Three compounds from above, sorted by their value in INS-1E GSIS act, falling.
Compound	ERp5 block	UUG fidelity	PDI inh	NR1D1 modulator	SMARCA2 act	INS-1E GSIS act	SMARCA2 conf
COCC(=O)N1CC2(C1)[C@@H](c1ccccc1)[C@@H](CO)N2Cc1ccccc1OC	-1	nt	nt	nt	nt	12	nt
O=C1c2ccccc2-c2c1c1ccccc1c(=O)n2-c1ccccc1	4	nt	-4	-26	-3	4	nt
CCCOC(=O)CC1C(=O)NCCN1Cc1ccccc1C (stereo not drawn)	-3	-11	-2	-7	9.5*	-3	-3

Copied from the list.
PDI inh, `O=C1c2ccccc2-c2c1c1ccccc1c(=O)n2-c1ccccc1` is entered as -4
ERp5 block, `C[C@H](CO)N1C[C@H](C)[C@@H](CN(C)C(=O)Nc2ccccc2)Oc2ccc(NC(=O)Nc3cccc4ccccc34)cc2C1=O` is entered as -3
PDI inh, `O=C(c1cccc(Br)c1)N1CCN(C(=O)N2CCOCC2)CC1` is entered as -3

The list goes on.
compound	ERp5 block	UUG fidelity	PDI inh	NR1D1 modulator	SMARCA2 act	INS-1E GSIS act	SMARCA2 conf	GAL4-VP16 Luc
COc1ccccc1NC(=O)N[C@@H]1CC[C@@H](CC(=O)N[C@@H](C)c2ccccc2)O[C@H]1CO	2	-2	nt	nt	nt	14	nt	nt
CCn1c(/C=C/c2ccccc2)nc2ccccc21	nt	-29	-3	-4	9.2*	-12	11*	11*
O=C(C[C@H]1CC[C@@H]2[C@H](COC[C@H](O)CN2S(=O)(=O)c2ccccc2)O1)NCCN1CCCC1	7	nt	nt	nt	nt	0	nt	nt
CSc1nc(Cl)cc(Nc2ccc(O)cc2)n1	-1	nt	0	-1	14*	17	6	4
CNc1cc(Cl)nc(SC)n1	-4	nt	-4	nt	-2	9	nt	nt
C=CCn1c(O)c(C2=c3ccccc3=NC2=O)sc1=Nc1ccc(O)cc1	-4	14	21	3	9.6*	17	-2	-1
CCCCNC(=O)C1CCN(Cc2ccc(OCc3ccccc3)c(OC)c2)CC1	2	17	1	1	9.4*	-10	2	6.2*
CCOCCCNC(=O)C1CCN(Cc2ccc(OCc3ccccc3)c(OC)c2)CC1	4	5	3	-3	1	-14	nt	nt
Cc1ccc(S(=O)(=O)Nc2ccc3c(c2)CC(=O)N([C@@H](C)CO)C[C@@H](C)[C@H](CN(C)S(=O)(=O)c2c(C)noc2C)O3)cc1	2	27	nt	nt	nt	-4	nt	nt
C[C@@H]1CN([C@H](C)CO)S(=O)(=O)c2ccc(Br)cc2O[C@@H]1CN(C)CC1CC1	3	6	nt	nt	nt	-4	nt	nt
CCOC(=O)c1ccc2nc(NC(=O)c3ccco3)sc2c1	nt	-11	-7	-1	2	nt	nt	nt
CCOC(=O)c1sc(NC(=O)c2cncc(Br)c2)nc1C	0	nt	nt	-7	10*	10	4	9.3*
C=CCOC(=O)c1sc(NC(=O)c2ccco2)nc1C	nt	-10	-4	2	8.0*	nt	18*	6.7*
CCOC(=O)c1sc(NC(=O)c2ccc3ncsc3c2)nc1C	8	-15	-16	2	2	17	nt	nt
Cc1ccc(C(=O)/C=C/c2ccc3c(c2)OCO3)o1	-1	-4	11	nt	11*	-1	9.4*	2
